Target: in vivo biotinylated HLA-A*0101-BSPHAT heavy chain folded with ß2m (human)
Test: ELISA

## CMV pp65 363-373 peptide (from UniProt P06725 363-373)
  % folding: 96%
